# Reference: patent US20040237845A1, “Stabilized chlorine dioxide as oxidizing agent for use in pulp” (priority 2002, published 2004)
# Type: physicochemical
substance,measurement,setting,value
Sodium Chlorite [stabilized chlorine dioxide],expected period of slow release of chlorine dioxide / oxidation of organic material,slurry of Example 1,up to 14 days
same,period over which the majority of the active chlorine dioxide is released,slurry treated with a high concentration of stabilized chlorine dioxide,up to 14 days
